Laboratory results as given in patent US9663526B2, “Aminopyrimidinyl compounds” (Pfizer Inc., priority 2014, dated 2017).

The chains behind the UniProt entries cited, without tags or fusion partners. Residues count along the entry.
UniProt P23458, 875-1153: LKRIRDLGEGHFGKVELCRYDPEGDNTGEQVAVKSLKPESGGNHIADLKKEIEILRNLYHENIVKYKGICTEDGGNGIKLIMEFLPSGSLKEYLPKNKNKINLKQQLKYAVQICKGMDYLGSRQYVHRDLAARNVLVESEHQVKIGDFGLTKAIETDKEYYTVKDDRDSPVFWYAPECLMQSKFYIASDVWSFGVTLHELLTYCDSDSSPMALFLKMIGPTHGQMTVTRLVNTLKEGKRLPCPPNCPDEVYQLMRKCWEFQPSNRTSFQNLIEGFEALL
UniProt P29597, 897-1176: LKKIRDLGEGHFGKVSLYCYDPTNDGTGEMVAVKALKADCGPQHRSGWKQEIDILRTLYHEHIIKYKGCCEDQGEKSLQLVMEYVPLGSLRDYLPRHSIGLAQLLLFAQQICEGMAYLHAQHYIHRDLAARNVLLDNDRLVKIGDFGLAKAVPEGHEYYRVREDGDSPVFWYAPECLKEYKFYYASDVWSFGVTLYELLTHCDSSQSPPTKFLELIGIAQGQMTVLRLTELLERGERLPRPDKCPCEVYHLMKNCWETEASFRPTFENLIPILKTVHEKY

molecular target: recombinant human kinase domain of JAK1 (Homo sapiens (Human), UniProt P23458); experiment: JAK Caliper enzyme assay at 1 mM ATP (JAK1); format: biochemical;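 note: microfluidic mobility-shift readout of synthetic fluorescent peptide phosphorylation, percent product converted from peak height, inhibition relative to DMSO-only wells as uninhibited baseline, room temperature incubation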

SMILES	IC50 [nM]
C[C@@H]1[C@@H]2CN(c3nc(Nc4cnc([C@@H](C)O)c(Cl)c4)ncc3F)C[C@]12NC(=O)C1CC1 [Example 106, N-{(1S,5R,6R)-3-[2-({5-chloro-6-[(1R)-1-hydroxyethyl]pyridin-3-yl}amino)-5-fluoropyrimidin-4-yl]-6-methyl-3-azabicyclo[3.1.0]hex-1-yl}cyclopropanecarboxamide]	2300

molecular target: recombinant human kinase domain of TYK2 (Homo sapiens (Human), UniProt P29597); experiment: JAK Caliper enzyme assay at 1 mM ATP (TYK2); format: biochemical;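 note: microfluidic mobility-shift readout of synthetic peptide phosphorylation by TYK2, tuned to 20–30% conversion at room temperature, reaction stopped with EDTA, DMSO-only wells as uninhibited baseline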

SMILES	IC50 [nM]
CCNC(=O)c1ccc(Nc2ncc(F)c(N3C[C@H]4CC[C@@H](C3)N4C(=O)C(F)(F)F)n2)cc1C [Example 72, N-ethyl-4-({5-fluoro-4-[8-(trifluoroacetyl)-3,8-diazabicyclo[3.2.1]oct-3-yl]pyrimidin-2-yl}amino)-2-methylbenzamide]	6
CNC(=O)c1ncc(Nc2nccc(N3C[C@H]4CC[C@@H](C3)N4C(=O)NCC#N)n2)cc1C [Example 90, (1R,5S)—N-(cyanomethyl)-3-(2-{[5-methyl-6-(methylcarbamoyl)pyridin-3-yl]amino}pyrimidin-4-yl)-3,8-diazabicyclo[3.2.1]octane-8-carboxamide]	14
Cc1cnc(Nc2ccc(OCCO)nc2)nc1N1C[C@H]2[C@@H](C)[C@@]2(NC(=O)[C@H]2C[C@@H]2C#N)C1 [Example 98, (1S,2S)-2-cyano-N-[(1S,5R,6R)-3-(2-{[6-(2-hydroxyethoxy)pyridin-3-yl]amino}-5-methylpyrimidin-4-yl)-6-methyl-3-azabicyclo[3.1.0]hex-1-yl]cyclopropanecarboxamide]	19
Cc1cc(Nc2nccc(N3C[C@H]4CC[C@@H](C3)N4C(=O)C3CC3(F)F)n2)cnc1C(N)=O (stereo partly drawn) [Example 34, 5-[(4-{(1R,5S)-8-[(2,2-difluorocyclopropyl)carbonyl]-3,8-diazabicyclo[3.2.1]oct-3-yl}pyrimidin-2-yl)amino]-3-methylpyridine-2-carboxamide]	36
CNC(=O)c1ncc(Nc2nccc(N3C[C@H]4CC[C@@H](C3)N4C(=O)[C@H]3C[C@@H]3F)n2)cc1C [Example 44, 5-({4-[(1R,5S)-8-{[(1R,2S)-2-fluorocyclopropyl]carbonyl}-3,8-diazabicyclo[3.2.1]oct-3-yl]pyrimidin-2-yl}amino)-N,3-dimethylpyridine-2-carboxamide]	72
